Source: patent publication EP4843990A1, “AMINO HETEROARYL MACROCYCLIC COMPOUNDS AS WELL AS PREPARATION METHOD THEREFOR AND USE THEREOF” (dated 2026)

Protein sequences, listed by entry. Tags and fused reporters are not part of them.
UniProt P08183, whole entry: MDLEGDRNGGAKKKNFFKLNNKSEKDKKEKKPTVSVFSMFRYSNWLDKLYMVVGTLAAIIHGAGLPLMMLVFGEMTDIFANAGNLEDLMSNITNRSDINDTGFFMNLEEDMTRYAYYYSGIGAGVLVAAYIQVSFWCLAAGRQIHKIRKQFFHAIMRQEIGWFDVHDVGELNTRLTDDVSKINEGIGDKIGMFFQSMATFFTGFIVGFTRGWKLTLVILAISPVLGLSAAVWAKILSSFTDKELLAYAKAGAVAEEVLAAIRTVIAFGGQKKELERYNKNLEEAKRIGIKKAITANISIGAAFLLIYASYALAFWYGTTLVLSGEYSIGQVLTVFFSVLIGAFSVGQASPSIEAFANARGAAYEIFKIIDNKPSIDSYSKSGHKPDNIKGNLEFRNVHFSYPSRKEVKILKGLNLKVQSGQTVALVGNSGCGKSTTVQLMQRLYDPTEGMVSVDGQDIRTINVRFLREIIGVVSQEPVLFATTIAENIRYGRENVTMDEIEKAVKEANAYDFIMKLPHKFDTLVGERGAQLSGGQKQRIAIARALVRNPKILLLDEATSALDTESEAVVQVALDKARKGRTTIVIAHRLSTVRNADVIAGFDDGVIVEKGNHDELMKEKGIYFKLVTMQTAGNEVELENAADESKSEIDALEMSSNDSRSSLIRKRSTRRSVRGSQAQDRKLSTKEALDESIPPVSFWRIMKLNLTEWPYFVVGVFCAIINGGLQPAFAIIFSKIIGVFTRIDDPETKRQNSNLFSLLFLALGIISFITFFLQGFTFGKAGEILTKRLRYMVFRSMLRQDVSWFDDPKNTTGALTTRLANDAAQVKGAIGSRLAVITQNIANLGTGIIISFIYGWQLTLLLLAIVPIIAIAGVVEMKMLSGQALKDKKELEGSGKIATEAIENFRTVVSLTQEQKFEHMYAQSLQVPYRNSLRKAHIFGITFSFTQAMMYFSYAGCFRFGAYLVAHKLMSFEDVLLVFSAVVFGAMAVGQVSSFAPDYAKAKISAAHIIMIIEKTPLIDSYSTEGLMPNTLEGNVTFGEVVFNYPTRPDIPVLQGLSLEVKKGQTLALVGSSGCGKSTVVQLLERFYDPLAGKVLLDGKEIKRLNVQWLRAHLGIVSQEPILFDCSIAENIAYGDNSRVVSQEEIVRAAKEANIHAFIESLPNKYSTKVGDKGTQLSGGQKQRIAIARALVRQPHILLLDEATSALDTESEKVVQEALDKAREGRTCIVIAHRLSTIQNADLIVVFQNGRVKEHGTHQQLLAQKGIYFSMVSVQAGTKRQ

Tests used:
[1] = system: A431; test: CellTiter-Glo cell proliferation inhibition assay; details: read-out: Antiproliferative activity (IC50 (nM)) A431; A431 cells; 72 hours; CTG
[2] = system: PC9; test: CellTiter-Glo cell proliferation inhibition assay; details: read-out: Antiproliferative activity (IC50 (nM)) PC9; PC9 cells; 72 hours; CTG
[3] = Cassette pharmacokinetic study in mice; details: ICR mice, PO, cassette dosing
[4] = system: Ba/F3 (EGFR-L858R/C797S); test: CellTiter-Glo cell proliferation inhibition assay; details: read-out: Antiproliferative activity (IC50 (nM)) Ba/F3 EGFR LR/CS; Ba/F3 (EGFR-L858R/C797S) cells; 72 hours; CTG
[5] = system: Ba/F3 (EGFR-L858R/T790M/C797S); test: CellTiter-Glo cell proliferation inhibition assay; details: read-out: Antiproliferative activity (IC50 (nM)) Ba/F3 EGFR LR/TM/CS; Ba/F3 (EGFR-L858R/T790M/C797S) cells; 72 hours; CTG
[6] = system: NCI-H1975; test: CellTiter-Glo cell proliferation inhibition assay; details: read-out: Antiproliferative activity (IC50 (nM)) NCI-H1975; NCI-H1975 cells; 72 hours; CTG
[7] = system: Ba/F3 EGFR wt+EGF; test: CellTiter-Glo cell proliferation inhibition assay; details: read-out: Antiproliferative activity (IC50 (nM)) Ba/F3 EGFR wt+EGF; Ba/F3 EGFR wt cells with EGF stimulation; 72 hours; CTG
[8] = target: P-gp (Homo sapiens, UniProt P08183); test: P-gp substrate evaluation assay (MDCKII-MDR1 Transwell permeability); details: MDCKII-MDR1 cells; Papp basolateral to apical / apical to basolateral; 2 hours; pH 7.4

Compound | IC50 [1] | IC50 [2] | Area Under the Curve AUC0-24h ([3]; 10 mg/kg) | Half-life T1/2 ([3]; 10 mg/kg) | Maximum Concentration Cmax ([3]; 10 mg/kg) | IC50 [4] | IC50 [5] | IC50 [6] | IC50 [7] | Area Under the Curve AUC0-24h ([3]; 15 mg/kg) | Half-life T1/2 ([3]; 15 mg/kg) | Maximum Concentration Cmax ([3]; 15 mg/kg) | ER (Efflux Ratio) [8]
CC1CCOc2c(cnn2C)-c2nccc(n2)Nc2cc3c1ccc(N1CC4(C1)CN(S(C)(=O)=O)C4)c3cn2 (centres unmarked) | > 10000 nM | 30.6 nM |  |  |  |  |  |  |  |  |  |  | 
CC1CCOc2c(cnn2C)-c2nccc(n2)Nc2cc3c1ccc(N1CCC(N(C)S(C)(=O)=O)C1)c3cn2 (centres unmarked) |  | 23 nM | 28665 ng·h/mL | 3.0 h | 2193 ng/mL |  |  |  |  |  |  |  | 
CC1CCOc2c(cnn2C)-c2nccc(n2)Nc2cc3c1ccc(N1C[C@H](CS(C)(=O)=O)[C@H]1C)c3cn2 (some centres unmarked) | 154 nM | 5.3 nM |  |  |  | 0.7 nM | 1.3 nM | 0.5 nM | 19 nM |  |  |  | 
CC1CCOc2c(cnn2C)-c2nccc(n2)Nc2cc3c1ccc(N1C[C@H](N=S(C)(C)=O)[C@H]1C)c3cn2 (some centres unmarked) | 4190 nM | 15.2 nM |  |  |  |  |  |  |  |  |  |  | 
CC1CCOc2c(cnn2C)-c2nccc(n2)Nc2cc3c1ccc(N1C[C@H](NS(C)(=O)=O)[C@H]1C)c3cn2 (some centres unmarked) | 810 nM | 2.1 nM |  |  |  | 1.1 nM |  |  |  |  |  |  | 
CC1CCOc2ccncc2-c2nccc(n2)Nc2cc3c1ccc(N1C[C@H](CS(C)(=O)=O)[C@H]1C)c3cn2 (some centres unmarked) | 468 nM | 0.5 nM |  |  |  | 0.8 nM | 1.4 nM | 1.5 nM | 80 nM |  |  |  | 
CC1COc2c(cnn2C)-c2nccc(n2)Nc2cc3c1ccc(N1C[C@H](N(C)S(C)(=O)=O)[C@H]1C)c3cn2 (some centres unmarked) | 857 nM | 12 nM |  |  |  | 13 nM |  |  |  |  |  |  | 
C[C@@H]1[C@@H](CS(C)(=O)=O)CN1c1ccc2c3cc(ncc13)Nc1ccnc(n1)-c1cnn(C)c1OCCN2C |  | 40 nM |  |  |  |  |  | 51 nM |  |  |  |  | 
C[C@@H]1[C@@H](N(C)S(C)(=O)=O)CN1c1ccc2c3cc(ncc13)Nc1ccnc(n1)-c1cnccc1OCCN2C | 410 nM | 1.1 nM |  |  |  | 5 nM | 3.1 nM | 1.3 nM | 103 nM |  |  |  | 
C[C@@H]1[C@@H](N(C)S(C)(=O)=O)CN1c1ccc2c3cc(ncc13)Nc1ccnc(n1)-c1cnn(C)c1OCC(F)(F)C2 |  | 17.4 nM |  |  |  |  |  | 9.9 nM |  |  |  |  | 
C[C@@H]1[C@@H](N(C)S(C)(=O)=O)CN1c1ccc2c3cc(ncc13)Nc1ccnc(n1)-c1cnn(C)c1OCCC2 | 746 nM | 7.5 nM |  |  |  | 3.9 nM | 2.6 nM | 3.3 nM | 152 nM | 6648 ng·h/mL | 4.7 h | 1082 ng/mL | 3.2
C[C@@H]1[C@@H](N(C)S(C)(=O)=O)CN1c1ccc2c3cc(ncc13)Nc1ccnc(n1)-c1cnn(C)c1OCCCC2 | 2130 nM | 5.1 nM |  |  |  | 4 nM | 3 nM | 5.5 nM | 895 nM |  |  |  | 1.7
C[C@@H]1[C@@H](N(C)S(C)(=O)=O)CN1c1ccc2c3cc(ncc13)Nc1ccnc(n1)-c1cnn(C)c1OCCCN2C |  | 34 nM |  |  |  |  |  | 32 nM |  |  |  |  | 
C[C@@H]1[C@@H](N(C)S(C)(=O)=O)CN1c1ccc2c3cc(ncc13)Nc1ccnc(n1)-c1cnn(C)c1OCCN2C | 632 nM | 3.3 nM |  |  |  | 4.1 nM | 2.3 nM | 1.9 nM | 133 nM |  |  |  | 3.2
Cc1cc2nc(n1)-c1cnccc1OCCCc1ccc(N3C[C@H](N(C)S(C)(=O)=O)[C@H]3C)c3cnc(cc13)N2 | 1240 nM | 18 nM |  |  |  | 2.8 nM | 3.5 nM | 33 nM | 372 nM |  |  |  | 
Cc1nn(C)c2c1-c1nccc(n1)Nc1cc3c(ccc(N4C[C@H](N(C)S(C)(=O)=O)[C@H]4C)c3cn1)CCCO2 | 876 nM | 8.3 nM |  |  |  | 0.9 nM |  | 10.2 nM |  |  |  |  | 

Compound | IC50 [1] | IC50 [2] | Area Under the Curve AUC0-24h ([3]; 10 mg/kg) | Half-life T1/2 ([3]; 10 mg/kg) | Maximum Concentration Cmax ([3]; 10 mg/kg) | IC50 [4] | IC50 [5] | IC50 [6] | IC50 [7] | Area Under the Curve AUC0-24h ([3]; 15 mg/kg) | Half-life T1/2 ([3]; 15 mg/kg) | Maximum Concentration Cmax ([3]; 15 mg/kg) | ER (Efflux Ratio) [8]
Cc1nn(C)c2c1-c1nccc(n1)Nc1cc3c(ccc(N4C[C@H](N(C)S(C)(=O)=O)[C@H]4C)c3cn1)N(C)CCO2 | 1380 nM | 5.8 nM |  |  |  | 1.2 nM |  | 11.4 nM |  |  |  |  | 
CC1CCOc2c(cnn2C)-c2nccc(n2)Nc2cc3c1ccc(N1C[C@H](N(C)S(C)(=O)=O)[C@H]1C)c3cn2 (single isomer, unassigned) | 117 nM | 0.3 nM |  |  |  | 0.2 nM | 0.7 nM | 0.7 nM | 12 nM | 2154 ng·h/mL | 1.0 h | 672 ng/mL | 1.5
CC1CCOc2ccncc2-c2nccc(n2)Nc2cc3c1ccc(N1C[C@H](CS(C)(=O)=O)[C@H]1C)c3cn2 (single isomer, unassigned) | 395 nM | 0.3 nM |  |  |  | 0.4 nM | 0.9 nM | 0.3 nM | 63 nM |  |  |  | 1
CC1CCOc2ccncc2-c2nccc(n2)Nc2cc3c1ccc(N1C[C@H](N(C)S(C)(=O)=O)[C@H]1C)c3cn2 (single isomer, unassigned) | 327 nM | 0.5 nM |  |  |  | 0.8 nM | 1.2 nM | 0.4 nM | 80 nM |  |  |  | 
CC1COc2ccncc2-c2nccc(n2)Nc2cc3c1ccc(N1C[C@H](N(C)S(C)(=O)=O)[C@H]1C)c3cn2 (single isomer, unassigned) | 3350 nM | 10 nM |  |  |  |  |  | 36 nM |  |  |  |  | 
CC1c2ccc(N3C[C@H](CS(C)(=O)=O)[C@H]3C)c3cnc(cc23)Nc2ccnc(n2)-c2cnn(C)c2OCC1(F)F (single isomer, unassigned) | 847 nM | 4.7 nM | 22063 ng·h/mL | 5.4 h | 1416 ng/mL | 0.7 nM | 0.9 nM | 4.1 nM | 98 nM |  |  |  | 
CC1c2ccc(N3C[C@H](N(C)S(C)(=O)=O)[C@H]3C)c3cnc(cc23)Nc2ccnc(n2)-c2cnn(C)c2OCC1(F)F (single isomer, unassigned) | 613 nM | 2 nM | 10972 ng·h/mL | 6 h | 964 ng/mL | 0.4 nM | 1.1 nM | 1.1 nM | 145 nM |  |  |  | 1
CCN([C@H]1CN(c2ccc3c4cc(ncc24)Nc2ccnc(n2)-c2cnn(C)c2OCCC3C)[C@@H]1C)S(C)(=O)=O (single isomer, unassigned) | 612 nM | 0.3 nM |  |  |  | 0.3 nM | 0.5 nM | 0.6 nM | 189 nM |  |  |  | 
Cc1cc2nc(n1)-c1cnn(C)c1OCCC(C)c1ccc(N3C[C@H](CS(C)(=O)=O)[C@H]3C)c3cnc(cc13)N2 (single isomer, unassigned) |  | 9.8 nM |  |  |  |  |  | 28 nM |  |  |  |  | 
Cc1nccc2c1-c1nccc(n1)Nc1cc3c(ccc(N4C[C@H](N(C)S(C)(=O)=O)[C@H]4C)c3cn1)C(C)CCO2 (single isomer, unassigned) | 582 nM | 0.2 nM |  |  |  | 1 nM | 2.5 nM | 2.8 nM | 106 nM | 13075 ng·h/mL | 3.0 h | 2950 ng/mL | 
Cc1nn(C)c2c1-c1nccc(n1)Nc1cc3c(ccc(N4C[C@H](CS(C)(=O)=O)[C@H]4C)c3cn1)C(C)CCO2 (single isomer, unassigned) | 548 nM | 0.6 nM |  |  |  | 0.9 nM | 1.5 nM | 1 nM | 160 nM |  |  |  | 
Cc1nn(C)c2c1-c1nccc(n1)Nc1cc3c(ccc(N4C[C@H](N(C)S(C)(=O)=O)[C@H]4C)c3cn1)C(C)C(F)(F)CO2 (single isomer, unassigned) | 775 nM | 2.4 nM |  |  |  | 0.5 nM | 1.8 nM | 1.4 nM | 138 nM | 21410 ng·h/mL | 5.1 h | 1581 ng/mL | 1.2
Cc1nn(C)c2c1-c1nccc(n1)Nc1cc3c(ccc(N4C[C@H](N(C)S(C)(=O)=O)[C@H]4C)c3cn1)C(C)CCO2 (single isomer, unassigned) | 363 nM | 0.4 nM | 10741 ng·h/mL | 3.2 h | 953 ng/mL | 0.14 nM | 0.6 nM | 0.5 nM | 104 nM |  |  |  | 0.4
Cc1nn(C)c2c1-c1nccc(n1)Nc1cc3c(ccc(N4C[C@H](N(C5CC5)S(C)(=O)=O)[C@H]4C)c3cn1)C(C)C(F)(F)CO2 (single isomer, unassigned) | 823 nM | 1.7 nM | 31408 ng·h/mL | 4.6 h | 2857 ng/mL | 0.8 nM | 2.1 nM | 1.2 nM | 256 nM |  |  |  | 
Cc1nn(C)c2c1-c1nccc(n1)Nc1cc3c(ccc(N4C[C@H](N(C5CC5)S(C)(=O)=O)[C@H]4C)c3cn1)C(C)CCO2 (single isomer, unassigned) | 653 nM | 0.5 nM |  |  |  | 0.6 nM | 1.2 nM | 0.9 nM | 210 nM |  |  |  | 
